Source: patent US8063043B2, “Salts of N-[6-cis-2,6-dimethylmorpholin-4-yl)pyridine-3-yl]-2-methyl-4′-(trifluoromethoxy)[1,1′-biphenyl]-3-carboxamide” (Novartis AG, priority 2008, dated 2011)

Test: Hygroscopicity, DVS sorption/desorption isotherms
Assay type: physicochemical
Conditions: RH 85.0%, 25° C.

For `Cc1c(C(=O)Nc2ccc(N3C[C@@H](C)O[C@@H](C)C3)nc2)cccc1-c1ccc(OC(F)(F)F)cc1.O=S(=O)(O)O` [Sulfate, mono], the “DVS Sorp. Weight % chg.” value was 1.835%.
